The numbers were not newly measured in patent US6498171B2, “Hydroxyomeprazole compositions” (Sepracor Inc., priority 1998, dated 2002), which cites them from elsewhere.

By UniProt entry, the sequences of proteins in these tests, tags left out.
UniProt P33261, whole entry: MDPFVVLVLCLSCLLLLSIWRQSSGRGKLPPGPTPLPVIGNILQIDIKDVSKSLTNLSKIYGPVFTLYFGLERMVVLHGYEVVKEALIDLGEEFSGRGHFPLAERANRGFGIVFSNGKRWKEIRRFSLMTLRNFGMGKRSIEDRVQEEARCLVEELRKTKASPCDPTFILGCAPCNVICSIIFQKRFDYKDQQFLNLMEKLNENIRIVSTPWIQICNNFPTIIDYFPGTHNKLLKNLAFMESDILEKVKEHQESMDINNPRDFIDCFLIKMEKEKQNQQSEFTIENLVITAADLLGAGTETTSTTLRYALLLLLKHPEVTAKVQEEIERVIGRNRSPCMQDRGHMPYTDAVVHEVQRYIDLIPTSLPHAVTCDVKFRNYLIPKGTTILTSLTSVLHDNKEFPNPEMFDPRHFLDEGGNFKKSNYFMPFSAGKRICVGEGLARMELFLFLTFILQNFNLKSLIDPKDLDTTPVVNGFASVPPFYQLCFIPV

The target of the series is CYP 2C19 (Homo sapiens, UniProt P33261).

Regarding `COc1ccc2nc([S+]([O-])Cc3ncc(C)c(OC)c3C)[nH]c2c1` (single isomer, unassigned; (+)) [(+)-omeprazole], the “hydroxylation by CYP 2C19” value was “rapidly hydroxylated”. For the compound `COc1ccc2[nH]c([S+]([O-])Cc3ncc(C)c(OC)c3C)nc2c1` (stereo not drawn) [(−)], the “hydroxylation by CYP 2C19” value is reported as “is not”.
